Measurements as given in PMC6226112 (Clinical and Translational Science, 2018).

Conditions: both, human, in vivo

C=CCN1CC[C@]23c4c5ccc(O)c4O[C@H]2C(=O)CC[C@@]3(O)[C@H]1C5 [NAL, naloxone]
Apparent terminal T½, GM: 1.93 h
